Two compounds from ChEMBL document CHEMBL1129937, “Synthesis and dihydrofolate reductase inhibitory activities of 2,4-diamino-5-deaza and 2,4-diamino-5,10-dideaza lipophilic antifolates” (J Med Chem, 1997) can be followed below.

One may read the IC50 as the midpoint of a concentration-inhibition curve.

The test has as its target T1, Dihydrofolate reductase (Pneumocystis carinii, UniProt P16184).
T1 sequence (P16184 whole entry): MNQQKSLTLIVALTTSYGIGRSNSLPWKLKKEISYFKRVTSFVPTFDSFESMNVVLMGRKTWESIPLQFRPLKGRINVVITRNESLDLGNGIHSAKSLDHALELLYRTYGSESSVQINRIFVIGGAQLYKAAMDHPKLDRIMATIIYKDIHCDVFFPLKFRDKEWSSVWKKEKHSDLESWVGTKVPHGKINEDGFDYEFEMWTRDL

For the compound `COc1cc(CCc2cnc3nc(N)nc(N)c3c2)cc(OC)c1OC`, the IC50 came out at 5 µM.

`COc1ccc(CCC2CNc3nc(N)nc(N)c3C2)cc1OC` (configuration not stated) had an IC50 of 7.7 µM.
